Data set [1] deals with zinc in the brain parenchyma. The data set can be described thus: zinc distribution in the CNS (autometallography) and systemic toxicity after 4 days administration in mice. The following applies: 10 mg/kg i.p.
In data set [2] the test system is amyloid accumulation in H4 cells. The data set can be described thus: H4 cell amyloid accumulation (6E10 antibody, HRP/OPD absorbance). The following applies: 1 μM, average of 2-3 experiments. Type of data set: cell-based, human.
Data set [3] relates to H4 cells (human neuroblastoma cell line). The data set can be described thus: H4 cell survival (MTT / Neutral Red assays). The following applies: for effect on H4 cell survival/viability: 5 days, single exposure; for cell survival (% controls), 5 day repeated doses / cell survival (% controls), 5 day single dose: H4 cells, 1 μM, average of 2-3 experiments.
Data set [4] deals with β-amyloid plaques. The settings on record: APP transgenic mouse, 4 weeks; compounds 10 mg/kg i.p.; clioquinol 30 mg/kg p.o. or 10 mg/kg i.p.

In the case of “Diethyl 7-oxomethylphosphonate-4-methylcoumarin”, the “zinc staining signal in the central nervous system” value in data set [1] is recorded as “Decreases in the zinc signal”. In data set [2], the “amyloid reduction (% controls), 5 day repeated doses” value came to 19 % controls and the “amyloid reduction (% controls), 5 day single dose” value turned out to be 37 % controls. Further, in data set [3], the “effect on H4 cell survival/viability” value was “did not affect viability”; the “cell survival (% controls), 5 day repeated doses” value amounted to 78 % controls; the “cell survival (% controls), 5 day single dose” value worked out at 104 % controls.
On to Diethyl 8-quinolyloxy methylphosphonate, for which, in data set [2], the “amyloid reduction (% controls), 5 day repeated doses” value turned out to be 71 % controls and the “amyloid reduction (% controls), 5 day single dose” value came to 36 % controls. Besides, in data set [3], the “cell survival (% controls), 5 day repeated doses” value worked out at 95 % controls and the “cell survival (% controls), 5 day single dose” value is 89 % controls.
For Diethyl 5-indolyloxy methylphosphonate, the “amyloid plaque load in brain” value in data set [4] is given as “reduced the plaque load”. Further, the “zinc staining signal in the central nervous system” value in data set [1] is on record as “Decreases in the zinc signal”. In addition, in data set [2], the “amyloid reduction (% controls), 5 day repeated doses” value was determined as 16 % controls and the “amyloid reduction (% controls), 5 day single dose” value worked out at 33 % controls. In data set [3], the “effect on H4 cell survival/viability” value was “did not affect significantly cell survival”; the “cell survival (% controls), 5 day repeated doses” value is 76 % controls; the “cell survival (% controls), 5 day single dose” value is 90 % controls.
With “Diethyl N-acridonyloxymethyl phosphonate”, in data set [2], the “amyloid reduction (% controls), 5 day repeated doses” value is given as 52 % controls and the “amyloid reduction (% controls), 5 day single dose” value was 57 % controls. In data set [3], the “cell survival (% controls), 5 day repeated doses” value is listed as 86 % controls and the “cell survival (% controls), 5 day single dose” value stood at 116 % controls.
For “Diethyl N-(tert-butoxycarbonyl)-L-tyrosyl methyl ester methylphosphonate”, in data set [2], the “amyloid reduction (% controls), 5 day repeated doses” value is listed as 17 % controls and the “amyloid reduction (% controls), 5 day single dose” value was found to be 10 % controls. In data set [3], the “cell survival (% controls), 5 day repeated doses” value is listed as 80 % controls and the “cell survival (% controls), 5 day single dose” value is 99 % controls.

For the origin of these results see patent publication US8513219B2, “Substituted phosphonates and their use in decreasing amyloid aggregates” (Queen Mary & Westfield College, University of London, priority 2007, dated 2013).
